By UniProt entry, the sequences of proteins in these tests, tags left out.
UniProt P27487, whole entry: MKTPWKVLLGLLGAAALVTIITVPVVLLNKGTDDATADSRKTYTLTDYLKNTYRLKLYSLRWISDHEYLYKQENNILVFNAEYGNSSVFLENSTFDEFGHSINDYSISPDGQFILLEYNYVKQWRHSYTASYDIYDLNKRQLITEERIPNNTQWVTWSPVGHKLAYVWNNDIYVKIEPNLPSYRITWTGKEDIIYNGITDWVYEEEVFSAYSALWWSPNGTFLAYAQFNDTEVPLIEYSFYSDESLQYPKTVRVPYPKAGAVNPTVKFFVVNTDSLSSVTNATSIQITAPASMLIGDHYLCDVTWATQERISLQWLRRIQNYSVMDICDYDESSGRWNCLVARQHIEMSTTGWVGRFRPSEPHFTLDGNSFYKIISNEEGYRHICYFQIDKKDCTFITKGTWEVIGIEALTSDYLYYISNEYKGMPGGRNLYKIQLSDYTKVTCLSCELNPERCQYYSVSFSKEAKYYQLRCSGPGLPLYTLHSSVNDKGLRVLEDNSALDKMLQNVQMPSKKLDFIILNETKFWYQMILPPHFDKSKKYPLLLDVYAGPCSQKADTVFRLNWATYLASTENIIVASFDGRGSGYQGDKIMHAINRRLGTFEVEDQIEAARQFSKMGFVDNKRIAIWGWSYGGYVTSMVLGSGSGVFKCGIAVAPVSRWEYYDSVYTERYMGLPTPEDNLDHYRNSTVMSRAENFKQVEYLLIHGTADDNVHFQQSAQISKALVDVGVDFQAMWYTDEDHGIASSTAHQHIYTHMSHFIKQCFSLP

According to patent publication US20020061839A1, “Serine peptidase modulators” (priority 1998, published 2002):

These molecules were tested against DPP IV (Homo sapiens, UniProt P27487). Conditions: pH 8.3, 15 min.
For `CS(=O)(=O)Nc1ccc(OP(=O)(Oc2ccc(NS(C)(=O)=O)cc2)C2CCCN2C(=O)[C@@H]2CCCN2)cc1.Cl` (mixture of isomers) [11f, Di(4-methylsulfonylaminophenyl) 1-((S)-prolyl)-pyrrolidine-2(R,S)-phosphonate hydrochloride], the “kcalc (second order rate constant of inactivation)” value (“kcalc” below) was 1900 M⁻¹ s⁻¹.
`COC(=O)CCNC(=O)c1ccc(OP(=O)(Oc2ccc(C(=O)NCCC(=O)OC)cc2)C2CCCN2C(=O)[C@@H]2CCCN2)cc1.Cl` (mixture of isomers) [11o, Di{4-[2-(methoxycarbonyl)ethylaminocarbonyl]phenyl}1-((S)-prolyl)-pyrrolidine-2(R,S)-phosphonate hydrochloride] was tested, and the “kcalc” value was 21000 M⁻¹ s⁻¹.
For `Cl.Cl.Cl.NCC(=O)Nc1ccc(OP(=O)(Oc2ccc(NC(=O)CN)cc2)C2CCCN2C(=O)[C@@H]2CCCN2)cc1` (mixture of isomers) [11i, Di[4-(N-glycylamino)phenyl]-1-((S)-prolyl)-pyrrolidine-2(R,S)-phosphonate trihydrochloride], the “kcalc” value was 1500 M⁻¹ s⁻¹.
With `Cl.O=C(CNC(=O)c1ccccc1)Nc1ccc(OP(=O)(Oc2ccc(NC(=O)CNC(=O)c3ccccc3)cc2)C2CCCN2C(=O)[C@@H]2CCCN2)cc1` (mixture of isomers) [11h, Di[4-(N-benzoylglycylamino)phenyl]-1-((S)-prolyl)pyrrolidine-2(R,S)-phosphonate hydrochloride] the “kcalc” value was 1100 M⁻¹ s⁻¹.
In the case of `CCCNC(=O)c1ccc(OP(=O)(Oc2ccc(C(=O)NCCC)cc2)C2CCCN2C(=O)[C@@H]2CCCN2)cc1.Cl` (mixture of isomers) [11p, Di[4-(n-propylaminocarbonyl)phenyl]1-((S)-prolyl)-pyrrolidine-2(R,S)-phosphonate hydrochloride], the “kcalc” value is reported as 26000 M⁻¹ s⁻¹.
With `CC(=O)Nc1cccc(OP(=O)(Oc2cccc(NC(C)=O)c2)C2CCCN2C(=O)[C@@H]2CCCN2)c1.Cl` (mixture of isomers) [11d] the “kcalc” value was 960 M⁻¹ s⁻¹.
